Measurements: patent US20050032810A1, “Novel anthelmintic and insecticidal compositions” (priority 2003, published 2005)
Structures can show the parent of a compound that is named as a salt.

The chains behind the UniProt entries cited, without tags or fusion partners.
UniProt Q7KRX1, entry or part of it: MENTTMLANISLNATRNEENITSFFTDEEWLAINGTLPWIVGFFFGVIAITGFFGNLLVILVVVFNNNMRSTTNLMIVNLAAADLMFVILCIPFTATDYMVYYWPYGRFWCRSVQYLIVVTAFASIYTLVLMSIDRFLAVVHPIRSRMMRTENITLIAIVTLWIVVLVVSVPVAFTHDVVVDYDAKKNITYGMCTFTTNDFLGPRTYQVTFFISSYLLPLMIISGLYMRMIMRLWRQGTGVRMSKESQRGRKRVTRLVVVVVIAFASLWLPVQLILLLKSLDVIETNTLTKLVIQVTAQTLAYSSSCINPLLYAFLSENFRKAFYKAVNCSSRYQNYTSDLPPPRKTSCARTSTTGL

Molecular target: Drosophila type 2 allatostatin receptor (Dm4) (Drosophila melanogaster, UniProt Q7KRX1)
Assay: biochemical

SMILES	IC50 [nM]
Nc1cc(N2CCC(c3ccccc3)CC2)nc(N)n1 [Compound 2, 6-(4-phenylpiperidin-1-yl)pyrimidine-2,4-diamine]	790
Nc1cc(N2CCC(c3ccccc3)CC2)nc(N)n1 [Compound 3, 6-(4-phenylpiperidin-1-yl)pyrimidine-2,4-diamine hydrochloride]	200 to 400
COc1ccc(C2CCN(c3cc(N)nc(N)n3)CC2)cc1 [Compound 4, 6-[4-(4-methoxyphenyl)piperidin-1-yl]pyrimidine-2,4-diamine]	1600
COc1cc(N2CCC(c3ccccc3)CC2)nc(OC)n1 [Compound 6, 2,4-dimethoxy-6-(4-phenylpiperidin-1-yl)pyrimidine]	222000
Cc1cc(N2CCC(c3ccccc3)CC2)nc(N)n1 [Compound 8, 4-methyl-6-(4-phenylpiperidin-1-yl)pyrimidin-2-amine]	2640
